In ChEMBL document CHEMBL1152667, “Synthesis and radiopharmacological investigation of 3-[4'-[(18)F]fluorobenzylidene]indolin-2-one as possible tyrosine kinase inhibitor” (Bioorg Med Chem, 2009):

Assay: Ratio of compound IC50 to SU-5416 IC50 for VEGFR

Ratio IC50: 7
Structure (SMILES): O=C1Nc2ccccc2/C1=C/c1ccc(F)cc1
